# Patent US5019575A, “Novel pyridazinone compounds, compositions thereof and method of use” (Orion-yhtyma Oy, priority 1989, dated 1991)
# What was measured:
# [1] = system: troponin; assay: Retention time in troponin high-performance liquid affinity chromatography (HPLAC) column, calcium dependent binding to troponin
# Description: The contraction in cardiac muscle and in vascular smooth muscle is triggered by the binding of calcium to troponin and to calmodulin, respectively. […] Commercially available troponin was coupled to the matrix of SelectiSpher-10™ Activated Tresyl silica HPLAC column (size 10 cm×5 mm). The compounds were run through the column with the flow rate 1 ml/min and detected by UV-spectrophotometrically.
# [2] = system: guinea-pig papillary muscle; assay: Cardiotonic effect in isolated, electrically driven, right ventricular papillary muscle, without and with carbachol; details: with 10 μM carbachol / without carbachol
# Description: The cardiotonic action of the compound was studied in isolated, electrically driven, right ventricular papillary muscle of guinea-pig.
# A = experiments carried out without carbachol
# B = experiments carried out in the presence of 10 μM carbachol
# [3] = system: guinea-pig papillary muscle; assay: Ability to induce tonic contraction in papillary muscle in the absence of extracellular calcium; details: drug concentration 100 μM; no extracellular calcium
# Description: The cardiotonic action of the compound was studied in isolated, electrically driven, right ventricular papillary muscle of guinea-pig. In order to compare the cardiotonic action based on PDEIII inhibition to that based on the other mechanisms the experiments were carried out in normal Tyrode's bathing solution (Otani et al., Japan. J. Pharmacol. 45, 425, 1987) and also in the solution with carbachol to eliminate the cardiotonic action due to the PDEIII inhibition (Alousi & Johnson, Circulation, 73 (suppl. III), 10-23, 1986).
# C = ability to induce tonic contraction in the absence of extracellular
# calcium; drug concentration 100 μM
smiles,measurement,setting,value
"CC1CC(=O)NN=C1c1ccc(NN=C(C#N)C#N)cc1 (centres unmarked) [Example 6, 6-[4-(1,1-dicyanomethylidenehydrazino)phenyl]-4,5-dihydro-5-methylpyridazin-3(2H)one]",Ratio Ca^2+ /EDTA (retention times in troponin-HPLAC column),[1]; Ca^2+ solution / EDTA solution,1.78
same,"Retention time in troponin-HPLAC column, Ca^2+ solution","[1]; mobile phase with 30 mM calcium, flow rate 1 ml/min",4.8 min
same,"Retention time in troponin-HPLAC column, EDTA solution","[1]; mobile phase without calcium (EDTA), flow rate 1 ml/min",2.7 min
same,Ratio B/A of EC50,[2],0.94
same,C: ability to induce tonic contraction in the absence of extracellular calcium,[3],yes
